Drawing on PubChem BioAssay AID2168 (The Scripps Research Institute Molecular Screening Center, 2009), this text covers inhibition for five molecules.

The chains behind the UniProt entries cited, without tags or fusion partners.
UniProt Q07820, whole entry, looked up: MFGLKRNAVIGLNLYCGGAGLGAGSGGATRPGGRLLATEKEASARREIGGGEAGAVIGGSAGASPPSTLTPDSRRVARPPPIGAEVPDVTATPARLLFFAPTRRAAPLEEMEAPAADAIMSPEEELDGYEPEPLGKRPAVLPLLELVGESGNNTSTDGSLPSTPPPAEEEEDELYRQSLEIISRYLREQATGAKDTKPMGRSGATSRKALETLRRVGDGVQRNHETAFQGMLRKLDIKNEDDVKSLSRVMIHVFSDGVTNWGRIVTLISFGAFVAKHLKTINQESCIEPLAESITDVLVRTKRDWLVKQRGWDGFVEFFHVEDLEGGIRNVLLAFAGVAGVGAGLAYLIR

The entries are a selection whose mix differs from that of the whole data set. Calls of active or inactive are those of the source.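 The calls were made as follows: active = inhibition above the average of all tested compounds plus 3 SD (cut at about 40% in these data); inactive = the rest.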

For this assay, the target named is Induced myeloid leukemia cell differentiation protein Mcl-1 (Homo sapiens) (UniProt Q07820). The assay can be described thus: MCL1-BIM peptide interaction disruptors – biochemical, fluorescence polarization, triplicate, confirmation (AID 2168).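 Also: 0% = DMSO wells and 100% = unlabeled Bim-BH3 control peptide.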 Conditions: GST-MCL1 / FITC-Bim-BH3 fluorescence polarization; at 10.9 µM; active compounds read high.
On to `CS(=O)(=O)c1cc([N+](=O)[O-])c2no[n+]([O-])c2c1`, for which the inhibition was active: 69.3%. Regarding `O=C(OC1CN2CCC1CC2)c1ccc(Cl)cc1` (stereo not given), the inhibition is inactive: 4.71%. Then `Nc1cccc2c([As](=O)(O)O)cccc12`, with active: 70%. Then `CN(C(=O)Cc1ccc(Cl)c(Cl)c1)[C@H]1CCCC[C@@H]1N1CCCC1`, with inactive: 34.5%; and `C[N+]1=C2C=CC=CC=C2SC12C([N+](=O)[O-])=CC([N+](=O)[O-])=C[C-]2[N+](=O)[O-]` (stereo not given), with inactive: 26.2%.

For orientation: inhibition means the change of the read-out against control, counted positive when it falls.
